Experimental data taken from patent US20230150929A1, “SELECTIVE NON-CYCLIC NUCLEOTIDE ACTIVATORS FOR THE CAMP SENSOR EPAC1” (The Board of Regents of The University of Texas System, priority 2020, published 2023).

Chains of the proteins cited; added tags and fusions are not shown. Lines headed by an entry give the natural chain unless they say otherwise; changes in a name come on top. Residues count along the entry.
UniProt O95398, 211-360 limits assumed: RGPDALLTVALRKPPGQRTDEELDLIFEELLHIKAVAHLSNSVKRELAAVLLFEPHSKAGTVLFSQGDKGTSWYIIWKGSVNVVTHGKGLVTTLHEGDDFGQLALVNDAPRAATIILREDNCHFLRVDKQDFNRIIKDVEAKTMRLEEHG
UniProt O95398, 191-923 limits assumed, stated change not applied: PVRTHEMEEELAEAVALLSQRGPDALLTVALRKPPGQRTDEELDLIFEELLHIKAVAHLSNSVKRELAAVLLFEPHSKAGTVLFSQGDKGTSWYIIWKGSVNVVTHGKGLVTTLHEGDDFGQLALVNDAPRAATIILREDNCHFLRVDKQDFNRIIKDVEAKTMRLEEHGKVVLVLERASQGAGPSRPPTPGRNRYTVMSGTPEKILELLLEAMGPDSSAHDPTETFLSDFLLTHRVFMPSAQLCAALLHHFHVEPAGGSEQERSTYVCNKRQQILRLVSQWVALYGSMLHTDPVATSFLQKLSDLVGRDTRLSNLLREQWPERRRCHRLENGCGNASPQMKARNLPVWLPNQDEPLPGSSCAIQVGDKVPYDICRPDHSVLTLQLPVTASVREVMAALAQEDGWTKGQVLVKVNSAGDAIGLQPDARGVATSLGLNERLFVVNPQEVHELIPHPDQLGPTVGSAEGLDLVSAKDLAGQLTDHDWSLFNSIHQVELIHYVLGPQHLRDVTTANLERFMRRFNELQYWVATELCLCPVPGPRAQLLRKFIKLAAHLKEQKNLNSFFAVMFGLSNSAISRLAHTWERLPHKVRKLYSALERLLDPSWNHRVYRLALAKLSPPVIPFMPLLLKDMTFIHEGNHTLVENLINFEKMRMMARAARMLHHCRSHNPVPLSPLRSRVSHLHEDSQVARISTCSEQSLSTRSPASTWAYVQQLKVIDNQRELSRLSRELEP

Legend:
EPAC1-CNBD = EPAC1-CNBD (Homo sapiens, UniProt O95398); test: 8-NBD-cAMP competition binding assay, EPAC1-CNBD; details: compound 10 µM, EPAC1-CNBD 0.8 µM, 8-NBD-cAMP 62.5 nM; mean ± SEM; lower RFI = stronger binding
EPAC1-ΔDEP (aa. 149-881) = EPAC1-ΔDEP (aa. 149-881) (Homo sapiens, UniProt O95398); test: 8-NBD-cAMP competition binding assay, EPAC1-ΔDEP; details: read-out: EPAC1-ΔDEP IC50; eleven-point dose-response 1-100 µM; mean ± SEM

Cc1ccc(S(=O)(=O)NC(=O)COc2ccc3ccccc3c2)c(C)c1
RFI (%) (relative fluorescence intensity), Table 1 (EPAC1-CNBD): 61 ± 3% | RFI (%) (relative fluorescence intensity), Table 3 (EPAC1-CNBD): 61 ± 3% | RFI (%) (relative fluorescence intensity), Table 4 (EPAC1-CNBD): 61 ± 3% | IC50 (EPAC1-ΔDEP (aa. 149-881)): 6.7 µM
